Measurements as given in patent publication US9079891B2, “Compounds that modulate intracellular calcium” (CALCIMEDICA, INC., priority 2010, dated 2015).

Amino acid sequences for entries named in this document (tags omitted).
UniProt Q96D31, whole entry: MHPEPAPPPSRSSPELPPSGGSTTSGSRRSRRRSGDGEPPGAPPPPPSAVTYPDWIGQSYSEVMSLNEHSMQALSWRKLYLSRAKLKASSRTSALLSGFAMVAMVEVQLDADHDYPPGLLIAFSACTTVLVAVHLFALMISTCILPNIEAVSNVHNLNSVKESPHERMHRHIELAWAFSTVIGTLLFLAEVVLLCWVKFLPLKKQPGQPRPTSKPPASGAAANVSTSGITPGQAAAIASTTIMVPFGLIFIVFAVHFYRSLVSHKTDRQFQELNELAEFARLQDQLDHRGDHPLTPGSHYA

What follows are molecules tested against recombinant human STIM1 and Orai1 (Homo sapiens, UniProt Q96D31) (assay: Fluorescence-based assay of store-operated calcium entry in Orai1/STIM1 stable cells (FLIPR)). Conditions: read-out: FLIPR_CRAC: 9 point CRC: O1S1_JR251: IC50: Peak_over_Basal; HEK-293 cells stably expressing human Orai1/STIM1; Fluo-4; Peak-Basal signal.
Method: A. Fluorescence-Based Assay of Store-Operated Calcium Entry in Orai1/Stim1 Stable Cells.
Cells stably expressing recombinant human STIM1 and Orai1 are generated by transfecting a human Orai1 expression plasmid (pcDNA3.1-Orai1-cmyc) into HEK-293 cells stably overexpressing human STIM1 (Roos et al. 2005 JCB 169(3): 435-445). Colonies of cells stably expressing both STIM1 and Orai1 proteins are selected and then subcloned by limiting dilution. Cells were cultured at 37° C./6% CO2 in complete medium with 10% FBS and appropriate selection markers.
The day prior to performing the assay Orai1/STIM1 stable cells are plated in 50 μL of complete medium at 90-95% confluence in a 384 well plate. Cells are grown at 37° C./6% CO2 overnight. […] The initial baseline fluorescence signal is then measured with a FLIPR^384 (Molecular Devices) plate reader. Calcium entry is initiated by adding 5 μl of 10×CaCl2 (10 mM) in HBSS, and changes in cellular fluorescence are measured with the FLIPR^384 plate reader. In each well, the magnitude of the fluorescence signal as a result of calcium entry into the cell is determined by calculating the difference between the peak fluorescence signal measured after calcium addition and the initial baseline fluorescence signal (designated Peak-Basal). […]

| SMILES | IC50 |
| --- | --- |
| Cn1nc(-c2ccccc2F)cc1-c1cnc(NC(=O)c2ccccc2F)s1 | 600 to 1200 nM |
| Cn1nc(-c2ccccc2)cc1-c1ccc(C(=O)Nc2c(F)cncc2F)s1 | 600 to 1200 nM |

The molecules below were run on RBL-2H3 cells (assay: Fluorescence-based assay of store-operated calcium entry in RBL-2H3 cells (FLIPR, thapsigargin)). Conditions: read-out: FLIPR_CRAC: 9 pt CRC - Fluo4_TG-D: RBL-2H3: IC50: Upslope 0-7 sec, Fluo-4.
Method: B. Fluorescence-Based Assay of Store-Operated Calcium Entry in RBL-2H3 Cells.
RBL-2H3 cells are obtained from ATCC and maintained in complete medium with 10% FBS at 37° C./6% CO2.
The day prior to performing the assay, RBL-2H3 cells are plated in 50 μl of complete medium in a 384 well plate. Cells are grown at 37° C./6% CO2 overnight and grow to 50-60% confluence by the next day. On the assay day, 1.5 μM Fluo-4-AM dye (Invitrogen) in complete medium is added and incubated for 1 hour at RT. Cells are washed twice in Ca^2+-free HBSS buffer and 35 μl Ca^2+-free HBSS buffer is added to each well. 10 μl of a test compound prepared in a Ca^2+-free HBSS solution at 4.5× of the desired concentration is added to a well and incubated for 5 minutes at RT. 10 μl of thapsigargin prepared in a Ca^2+-free HBSS solution at 5.5× of the desired concentration (5.5 uM) is added to each well and incubated for an additional 25 minutes. The initial baseline fluorescence signal is measured with a FLIPR^384 (Molecular Devices) plate reader. 5 μl of 12× calcium in HBSS (12 mM) is added and changes in cellular fluorescence are measured with the FLIPR^384 plate reader. In each well, the change in the fluorescent signal as a function of time due to calcium entry into the cell is determined by calculating the difference between the fluorescent signal measured 7 seconds after calcium addition and the initial baseline fluorescence signal at time zero (t=0). This parameter is designated Upslope. The IC50 value is calculated as the concentration at which 50% of the Upslope is inhibited.

| SMILES | IC50 |
| --- | --- |
| Cn1nc(C(F)(F)F)cc1-c1sc(C(=O)Nc2ccccc2Cl)cc1N | < 600 nM |
| Cn1nc(-c2ccccc2F)cc1-c1ccc(C(=O)Nc2c(F)cncc2F)s1 | < 600 nM |
| Cn1nc(-c2ccccc2F)cc1-c1ccc(C(=O)Nc2ncccc2F)s1 | < 600 nM |
| Cn1nc(-c2ccccc2F)cc1-c1ccc(C(=O)Nc2ncc(Cl)cc2F)s1 | 600 to 1200 nM |
| Cn1nc(C(F)(F)F)cc1-c1sc(C(=O)Nc2ccccc2F)cc1N | < 600 nM |
| Cn1nc(-c2ccccc2)cc1-c1ccc(C(=O)Nc2ccccc2F)s1 | 600 to 1200 nM |
| Cn1nc(-c2ccco2)cc1-c1ccc(C(=O)Nc2c(F)cncc2F)s1 | < 600 nM |
| Cn1nc(-c2nccs2)cc1-c1ccc(C(=O)Nc2ccccc2F)s1 | < 600 nM |
| Cn1nc(-c2nccs2)cc1-c1ccc(C(=O)Nc2ncc(Cl)cc2F)s1 | < 600 nM |
| Cn1nc(-c2ccco2)cc1-c1ccc(C(=O)Nc2ncccc2F)s1 | 600 to 1200 nM |
| Cn1nc(-c2ccccc2)cc1-c1ccc(C(=O)Nc2ccncc2F)s1 | 600 to 1200 nM |
| Cn1nc(-c2nccs2)cc1-c1ccc(C(=O)Nc2ccncc2F)s1 | < 600 nM |
| Cn1nc(-c2ccco2)cc1-c1ccc(C(=O)Nc2ccncc2F)s1 | < 600 nM |
| Cn1nc(-c2ccco2)cc1-c1ccc(C(=O)Nc2ncc(Cl)cc2F)s1 | < 600 nM |
| Cn1nc(-c2ccccc2)cc1-c1ccc(C(=O)Nc2c(F)cncc2F)s1 | 600 to 1200 nM |
